For data set [1], the target named is T1, Neuronal acetylcholine receptor; alpha4/beta2 (Homo sapiens, UniProt P17787+P43681). In words: Antagonist activity at human alpha4beta2 expressed in human SH-EP1 cells assessed as reduction in carbamylcholine induced 86Rb+ efflux preincubated for 10 mins followed by carbamylcholine addition measured after 5 mins by Cherenkov counting. The format is cell-based. An outline of the steps:
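Same 86Rb+-loaded cells and pH 7.4 efflux buffer. Cells lysed in 0.1 M NaOH/0.1% SDS and Cerenkov counted. Specific efflux = total minus nonspecific (mecamylamine-blocked); inactivation IC50 derived from inhibition of carbamylcholine response.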

The chains behind the UniProt entries cited, without tags or fusion partners. Where a name states a change or a piece, a line headed by the entry shows the natural chain unless it says otherwise.
UniProt P17787, whole entry: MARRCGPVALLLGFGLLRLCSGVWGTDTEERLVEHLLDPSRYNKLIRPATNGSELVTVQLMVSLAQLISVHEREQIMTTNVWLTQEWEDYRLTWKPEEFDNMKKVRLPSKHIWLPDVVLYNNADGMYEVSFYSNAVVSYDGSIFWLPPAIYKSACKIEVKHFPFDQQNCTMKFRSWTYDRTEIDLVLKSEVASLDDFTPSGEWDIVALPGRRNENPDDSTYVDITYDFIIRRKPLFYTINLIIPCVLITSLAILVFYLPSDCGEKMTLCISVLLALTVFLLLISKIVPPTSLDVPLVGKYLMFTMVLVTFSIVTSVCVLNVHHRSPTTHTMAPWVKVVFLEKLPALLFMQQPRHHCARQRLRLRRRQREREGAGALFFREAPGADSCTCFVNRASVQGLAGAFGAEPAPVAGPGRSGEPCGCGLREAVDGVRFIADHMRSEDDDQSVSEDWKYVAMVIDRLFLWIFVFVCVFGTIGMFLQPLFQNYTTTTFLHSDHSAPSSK
UniProt P43681: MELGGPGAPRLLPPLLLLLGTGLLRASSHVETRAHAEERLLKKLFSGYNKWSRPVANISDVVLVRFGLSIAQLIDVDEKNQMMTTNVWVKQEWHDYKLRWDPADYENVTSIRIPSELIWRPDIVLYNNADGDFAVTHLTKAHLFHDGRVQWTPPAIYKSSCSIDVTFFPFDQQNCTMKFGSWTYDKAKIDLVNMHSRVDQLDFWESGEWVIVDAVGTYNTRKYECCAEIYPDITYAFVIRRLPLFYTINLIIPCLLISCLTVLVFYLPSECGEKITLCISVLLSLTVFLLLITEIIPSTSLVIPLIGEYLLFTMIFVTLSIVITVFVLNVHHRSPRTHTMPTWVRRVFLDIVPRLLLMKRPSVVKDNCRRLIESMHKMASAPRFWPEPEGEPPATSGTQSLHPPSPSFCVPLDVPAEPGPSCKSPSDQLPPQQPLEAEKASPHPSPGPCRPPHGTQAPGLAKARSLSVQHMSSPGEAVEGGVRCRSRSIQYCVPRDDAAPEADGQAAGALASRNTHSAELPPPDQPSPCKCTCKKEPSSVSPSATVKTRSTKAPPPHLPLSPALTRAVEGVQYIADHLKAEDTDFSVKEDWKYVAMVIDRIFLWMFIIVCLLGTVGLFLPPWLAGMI
UniProt P04757, whole entry: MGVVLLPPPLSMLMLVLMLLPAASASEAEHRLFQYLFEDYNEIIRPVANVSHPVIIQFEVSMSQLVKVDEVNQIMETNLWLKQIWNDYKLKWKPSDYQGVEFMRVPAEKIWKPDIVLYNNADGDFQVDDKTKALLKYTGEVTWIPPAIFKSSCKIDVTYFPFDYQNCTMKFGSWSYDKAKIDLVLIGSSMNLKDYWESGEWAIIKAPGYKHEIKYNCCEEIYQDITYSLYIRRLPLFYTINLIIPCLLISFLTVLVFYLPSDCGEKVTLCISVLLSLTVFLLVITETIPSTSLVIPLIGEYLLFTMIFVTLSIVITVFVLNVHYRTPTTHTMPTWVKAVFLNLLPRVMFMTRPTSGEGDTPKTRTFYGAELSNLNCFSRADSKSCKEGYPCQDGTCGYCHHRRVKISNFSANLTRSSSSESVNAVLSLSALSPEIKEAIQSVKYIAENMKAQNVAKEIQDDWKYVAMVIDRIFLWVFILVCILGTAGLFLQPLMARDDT
UniProt P12392, whole entry: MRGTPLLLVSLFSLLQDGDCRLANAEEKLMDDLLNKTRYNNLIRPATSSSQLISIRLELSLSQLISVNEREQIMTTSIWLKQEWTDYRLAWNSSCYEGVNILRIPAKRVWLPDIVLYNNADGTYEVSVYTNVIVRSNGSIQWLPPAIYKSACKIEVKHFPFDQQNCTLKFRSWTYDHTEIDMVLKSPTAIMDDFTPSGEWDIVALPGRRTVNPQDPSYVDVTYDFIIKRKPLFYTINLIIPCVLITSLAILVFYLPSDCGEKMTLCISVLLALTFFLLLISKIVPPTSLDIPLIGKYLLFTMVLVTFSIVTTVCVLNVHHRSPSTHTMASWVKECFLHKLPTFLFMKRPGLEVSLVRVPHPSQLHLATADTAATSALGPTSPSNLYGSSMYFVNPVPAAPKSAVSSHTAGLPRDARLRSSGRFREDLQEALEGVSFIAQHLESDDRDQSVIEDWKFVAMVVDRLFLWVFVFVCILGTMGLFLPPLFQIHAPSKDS

Data set [2] concerns the target alpha3beta4 nAChR (neuronal acetylcholine receptor alpha3/beta4) (Rattus norvegicus, UniProt P04757+P12392). The experiment in a line: Displacement of [3H]epibatidine from rat alpha3beta4 nAChR at 10 uM by liquid scintillation counting. The settings on record: probe [3H]epibatidine.
Data set [3] has as its target T1, Neuronal acetylcholine receptor; alpha4/beta2. In words: Agonist activity at human alpha4beta2 nAChR expressed in human SH-EP1 cells after 9.5 mins by 86Rb+ efflux assay. It counts as cell-based. An outline of the steps: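 86Rb+ efflux: cells loaded with ~350,000 cpm 86Rb+ at least 4 h (typically overnight), rinsed with efflux buffer pH 7.4 (130 mM NaCl, 5.4 mM KCl, 2 mM CaCl2, 50 mM HEPES, 5 mM glucose). Test drug alone applied 9.5 min. Efflux normalized, after nonspecific subtraction, to specific efflux of fully efficacious carbamylcholine control; nonspecific defined with carbamylcholine plus mecamylamine; EC50 derived.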

In ChEMBL document CHEMBL3877245 (Eur J Med Chem, 2016) one finds IC50, inhibition and EC50 data, which are given here for one molecule.

SMILES strings stand for the structures. pEC50, pIC50: −log10 of the molar value.

What is called pIC50 is the negative decadic logarithm of the IC50, by convention in mol/L. As a reminder, the inhibition is the percentage by which the read-out fell short of the control. By pEC50 is commonly meant the negative decadic logarithm of the EC50, by convention in mol/L. A low value points to a high EC50. For the molecule `COCC[C@H]1C[C@@H]1c1cncc(N2C[C@@H]3C[C@H]2CN3)c1`, the pIC50 in data set [1] was 6.77. The same molecule displayed an inhibition at 10 µM in data set [2] of less than 50%. The molecule further had a pEC50 in data set [3] of 6.90.
